From ChEMBL document CHEMBL1139143, “Synthesis and structure-activity relationships of N-substituted spiropiperidines as nociceptin receptor ligands” (Bioorg Med Chem Lett, 2007)

Amino acid sequences for entries named in this document (tags omitted).
UniProt P41146, whole entry: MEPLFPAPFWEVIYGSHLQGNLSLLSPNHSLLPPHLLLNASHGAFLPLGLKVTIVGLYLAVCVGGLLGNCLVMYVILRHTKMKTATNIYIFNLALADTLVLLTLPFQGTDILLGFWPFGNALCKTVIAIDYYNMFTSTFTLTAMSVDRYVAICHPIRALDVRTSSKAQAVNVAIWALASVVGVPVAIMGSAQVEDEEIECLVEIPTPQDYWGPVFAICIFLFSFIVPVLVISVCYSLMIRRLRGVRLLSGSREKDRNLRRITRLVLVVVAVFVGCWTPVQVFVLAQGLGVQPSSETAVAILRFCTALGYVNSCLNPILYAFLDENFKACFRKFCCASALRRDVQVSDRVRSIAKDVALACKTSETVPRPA
UniProt P41143, whole entry: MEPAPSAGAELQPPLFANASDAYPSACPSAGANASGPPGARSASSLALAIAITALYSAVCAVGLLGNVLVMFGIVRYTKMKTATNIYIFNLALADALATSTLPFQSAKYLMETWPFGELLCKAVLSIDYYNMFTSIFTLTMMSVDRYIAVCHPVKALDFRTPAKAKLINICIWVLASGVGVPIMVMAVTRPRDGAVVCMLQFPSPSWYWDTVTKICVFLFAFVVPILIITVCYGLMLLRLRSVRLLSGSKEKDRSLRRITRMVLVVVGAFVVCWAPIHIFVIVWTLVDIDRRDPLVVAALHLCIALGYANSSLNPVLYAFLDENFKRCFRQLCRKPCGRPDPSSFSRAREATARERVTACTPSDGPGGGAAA
UniProt P41145, whole entry: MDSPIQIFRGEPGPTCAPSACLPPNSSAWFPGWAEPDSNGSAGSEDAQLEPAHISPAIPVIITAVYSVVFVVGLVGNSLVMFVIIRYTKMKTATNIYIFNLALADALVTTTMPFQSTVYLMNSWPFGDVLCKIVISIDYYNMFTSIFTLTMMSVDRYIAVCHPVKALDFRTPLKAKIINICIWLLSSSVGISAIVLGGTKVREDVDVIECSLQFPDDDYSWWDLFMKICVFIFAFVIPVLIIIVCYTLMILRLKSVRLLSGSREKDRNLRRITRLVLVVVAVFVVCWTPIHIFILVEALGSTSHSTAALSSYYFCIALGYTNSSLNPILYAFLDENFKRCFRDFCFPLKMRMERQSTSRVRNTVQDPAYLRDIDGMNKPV
UniProt P35372, whole entry: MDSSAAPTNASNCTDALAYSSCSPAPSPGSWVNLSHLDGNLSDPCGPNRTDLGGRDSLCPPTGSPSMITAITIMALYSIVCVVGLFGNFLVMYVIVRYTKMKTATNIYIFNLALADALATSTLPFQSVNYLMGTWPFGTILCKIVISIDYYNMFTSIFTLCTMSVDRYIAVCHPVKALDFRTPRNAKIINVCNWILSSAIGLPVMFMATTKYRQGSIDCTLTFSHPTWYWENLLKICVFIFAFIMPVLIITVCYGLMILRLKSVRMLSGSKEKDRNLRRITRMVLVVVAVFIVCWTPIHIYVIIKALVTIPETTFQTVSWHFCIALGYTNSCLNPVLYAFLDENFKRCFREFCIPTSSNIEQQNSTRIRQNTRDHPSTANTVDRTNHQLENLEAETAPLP

Assays:
Nociceptin receptor = Nociceptin receptor (Homo sapiens, UniProt P41146); assay: Displacement of [125I]nociceptin from human nociceptin receptor expressed in CHO cell membrane
[1] = target: Delta-type opioid receptor (Homo sapiens, UniProt P41143); assay: Displacement of [3H]diprenorphine from human delta opioid receptor expressed in CHO cell membrane
[2] = target: Kappa-type opioid receptor (Homo sapiens, UniProt P41145); assay: Displacement of [3H]diprenorphine from human kappa opioid receptor expressed in CHO cell membrane
Mu-type opioid receptor = Mu-type opioid receptor (Homo sapiens, UniProt P35372); assay: Displacement of [3H]diprenorphine from human mu opioid receptor expressed in CHO cell membrane

Which results are given for `O=C1NCN(c2ccccc2)C12CCN(C1CCc3ccccc31)CC2` (stereo unspecified)?
Ki (Nociceptin receptor): 1.2 nM; Ki [1]: 1850 nM; Ki [2]: 32 nM; Ki (Mu-type opioid receptor): 19 nM

Which results are given for `O=C1NCN(c2ccccc2)C12CCN(Cc1cccnc1)CC2`?
Ki (Nociceptin receptor): 133 nM; Ki [1]: 3790 nM; Ki [2]: 252 nM; Ki (Mu-type opioid receptor): 233 nM

How did the Ki (Nociceptin receptor) turn out when `O=C1NCN(c2ccccc2)C12CCN(C1CCCc3cccc(F)c31)CC2` (stereo unspecified) was run?
The Ki was 0.3 nM.

And the Ki [1]?
Its Ki is 1230 nM.

And the Ki [2]?
The Ki was 145 nM.

What about the Ki (Mu-type opioid receptor) of the same molecule?
Its Ki is 5.1 nM.

With `O=C1NCN(c2ccccc2)C12CCN(Cc1ccncc1)CC2` as the molecule, how does the Ki (Nociceptin receptor) read?
Its Ki is 824 nM.

Which results are given for `CC(C)CCC(c1ccccc1)N1CCC2(CC1)C(=O)NCN2c1ccccc1` (stereo unspecified)?
Ki (Nociceptin receptor): 1.5 nM; Ki [1]: 736 nM; Ki [2]: 25.5 nM; Ki (Mu-type opioid receptor): 30 nM

Which results are given for `CCCCC(c1ccccc1)N1CCC2(CC1)C(=O)NCN2c1ccccc1` (stereo unspecified)?
Ki (Nociceptin receptor): 1.1 nM; Ki [1]: 1420 nM; Ki [2]: 13 nM; Ki (Mu-type opioid receptor): 22 nM
